The IC50 is the concentration that gives 50% inhibition.

Protein sequences, listed by entry. Tags and fused reporters are not part of them.
UniProt Q8NER1, whole entry: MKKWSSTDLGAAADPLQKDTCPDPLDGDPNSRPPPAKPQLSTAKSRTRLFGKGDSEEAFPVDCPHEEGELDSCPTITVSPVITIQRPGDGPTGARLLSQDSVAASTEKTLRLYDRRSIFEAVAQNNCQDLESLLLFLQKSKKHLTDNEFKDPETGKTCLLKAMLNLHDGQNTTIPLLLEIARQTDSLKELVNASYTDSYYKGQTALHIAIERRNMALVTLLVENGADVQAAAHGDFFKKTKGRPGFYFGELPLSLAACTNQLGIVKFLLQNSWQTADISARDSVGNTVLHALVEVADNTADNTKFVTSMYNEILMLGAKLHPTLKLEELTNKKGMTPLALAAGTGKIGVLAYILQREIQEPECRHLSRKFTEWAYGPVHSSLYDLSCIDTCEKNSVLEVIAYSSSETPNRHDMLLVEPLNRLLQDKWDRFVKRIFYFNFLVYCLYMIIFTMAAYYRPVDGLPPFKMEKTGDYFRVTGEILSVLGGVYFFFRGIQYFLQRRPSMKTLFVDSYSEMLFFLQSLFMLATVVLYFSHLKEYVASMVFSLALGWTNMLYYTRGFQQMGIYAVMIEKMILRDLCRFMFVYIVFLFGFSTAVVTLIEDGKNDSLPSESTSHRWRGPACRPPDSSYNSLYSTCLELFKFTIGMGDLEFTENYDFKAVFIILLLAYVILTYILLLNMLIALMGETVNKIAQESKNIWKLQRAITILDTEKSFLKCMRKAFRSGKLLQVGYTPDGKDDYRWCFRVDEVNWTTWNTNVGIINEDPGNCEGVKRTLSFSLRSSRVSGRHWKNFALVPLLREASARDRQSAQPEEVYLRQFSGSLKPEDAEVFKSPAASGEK

Assay [1] addresses T1, human VR1 (Homo sapiens, UniProt Q8NER1). As to the kind of experiment: Capsaicin-based assay of VR1 inhibition (FLIPR, Fluo-4 calcium, HEK293-EcR cells induced with PonA). The conditions noted are these: activation by capsaicin (400 nM), HEK293-EcR cells expressing human VR1. As to the method:
(§1) Human VR1 Cloning: Human spinal cord RNA (commercially available from Clontech, Palo Alto, Calif.) was used. Reverse transcription was conducted on 1.0 μg total RNA using Thermoscript Reverse Transcriptase (commercially available from Invitrogen, Carlsbad, Calif.) and oligo dT primers as detailed in its product description. Reverse transcription reactions were incubated at 55° C. for 1 h, heat-inactivated at 85° C. for 5 min, and RNase H-treated at 37° C. for 20 min.
(§2) Human VR1 cDNA sequence was obtained by comparison of the human genomic sequence, prior to annotation, to the published rat sequence. Intron sequences were removed and flanking exonic sequences were joined to generate the hypothetical human cDNA. Primers flanking the coding region of human VR1 were designed as follows: forward primer, […] (SEQ ID NO:1); and reverse primer, […] (SEQ ID NO:2). […]
(§3) Generation of Inducible Cell Lines: Unless noted otherwise, cell culture reagents were purchased from Life Technologies of Rockville, Md. […] On the day of assay, cells were loaded with Fluo-4 (a calcium-sensitive dye that is commercially available from Molecular Probes, Eugene, Oreg.) and CAP-mediated calcium influx was measured using a FLIPR as described below. […]

Assay [2] addresses T1, human VR1. As to the kind of experiment: pH-based assay of VR1 inhibition (FLIPR, Fluo-4 calcium, HEK293-EcR cells induced with PonA). The conditions noted are these: agonist buffer giving pH 5.5, HEK293-EcR cells expressing human VR1. As to the method: as §1, §2, §3

As to `CC(C)(C)c1ccc(NC(=O)N2CC=C(c3nccnc3Cl)CC2)cc1`, the IC50 at human VR1 [1] turned out to be 0.019 µM; on human VR1 [2], 0.735 µM.

Source of the values: US8178560B2.
